Results as given in patent publication US4593019A, “N^6 -tricyclic adenosines” (Warner-Lambert Company, priority 1984, dated 1986).
pIC50: −log10 of the molar value.

Sequences of proteins named here, by UniProt entry; tags and fusion partners are left off.
UniProt P30543, whole entry: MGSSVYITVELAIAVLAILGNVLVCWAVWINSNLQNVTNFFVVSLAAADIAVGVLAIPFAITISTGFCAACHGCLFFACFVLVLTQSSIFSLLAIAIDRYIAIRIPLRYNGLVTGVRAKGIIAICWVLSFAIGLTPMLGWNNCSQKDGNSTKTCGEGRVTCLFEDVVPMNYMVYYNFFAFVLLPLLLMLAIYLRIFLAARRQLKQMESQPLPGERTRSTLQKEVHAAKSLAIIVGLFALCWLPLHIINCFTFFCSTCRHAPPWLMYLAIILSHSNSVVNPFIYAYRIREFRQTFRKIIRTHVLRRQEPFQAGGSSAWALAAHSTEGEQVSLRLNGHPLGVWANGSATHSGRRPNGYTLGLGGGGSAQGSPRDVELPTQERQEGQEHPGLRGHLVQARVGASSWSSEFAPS

Biological target: T1, A2 receptor (Rattus norvegicus, UniProt P30543)
T1 construct: 5 mg original tissue weight of rat weight of rat striatal membranes; tissue Pel-Freez (Rogers, Ark.); host or cells: rat striatum (membranes)
Experiment: Adenosine Receptor Binding - A2 Receptor Affinity (RBA2), [3H]NECA displacement
Protocol: Adenosine Receptor Binding--A2 Receptor Affinity (RBA2)
Brains from 200-500 g mixed sex Sprague-Dawley rats were purchased from Pel-Freez (Rogers, Ark.). […] Brains were thawed and then kept on ice while the striata were dissected out. […] The suspension was centrifuged at 50,000 xg for ten minutes, the supernatant discarded, the pellet resuspended in 10 vol ice-cold Tris as above, recentrifuged, resuspended at 1 g/5 ml, and stored in plastic vials at -70° C. […] When needed, tissue was thawed at room temperature, disrupted in a Polytron, and kept on ice until used. […]
Nonspecific binding was defined as binding in the presence of 100 μM N^6 -cyclopentyladenosine, and specific binding was defined as total binding minus nonspecific binding. The IC50 was calculated by weighted nonlinear least squares curve-fitting to the mass-action equation. […]
Weighting factors were calculated under the assumption that the standard deviation was proportional to the predicted value of Y. Nonspecific binding was treated as a very large (infinite) concentration of drug in the computer analysis.

`OC[C@H]1O[C@@H](n2cnc3c(NCC4c5ccccc5-c5ccccc54)ncnc32)[C@H](O)[C@@H]1O` [Example 2] was tested. Which pIC50 did it give?
The pIC50 was 8.16.
